## Yeast mating assay 2: variants of the scFv Ab-91

Source: Engelhart et al. 2022 (doi:10.1038/s41597-022-01779-4), MIT Lincoln Laboratory and A-Alpha Bio; data file from the FLAb repository.

Antigen: PDVDLGDISGINAS, a 14-residue peptide of the SARS-CoV-2 spike HR2 region.

Parent: Ab-91, a human scFv built as VL, the linker GGGGSGGGGSGGGGS, VH. Only the CDRs of the heavy chain vary.
VL: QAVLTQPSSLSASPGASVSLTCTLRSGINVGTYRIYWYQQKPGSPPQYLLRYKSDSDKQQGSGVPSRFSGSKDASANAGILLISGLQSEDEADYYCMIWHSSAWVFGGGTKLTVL
VH: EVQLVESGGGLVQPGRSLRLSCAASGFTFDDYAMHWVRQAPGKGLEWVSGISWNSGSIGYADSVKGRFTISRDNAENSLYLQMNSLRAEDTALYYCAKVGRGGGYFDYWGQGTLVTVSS

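Variants in AAYL51 differ from the parent at up to three CDR positions; double and triple changes were sampled at random. In AlphaSeq, yeast of one mating type display the scFv and yeast of the other type display the target. Pairs that bind mate more often; barcode pairs of the diploids are counted by sequencing. Read counts were normalised to the haploid input and turned into Kd by a linear fit to BCL2-family pairs of known affinity, for each replicate. Mating was done three times.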

Variants are written as CDR1, CDR2 and CDR3 of the heavy chain (limits as in the source). Parent: GFTFDDYAMH, GISWNSGSIGYADSVK, VGRGGGYFDY. Affinities are written as log10 Kd with Kd in nM; a lower number is a better binder. "ND" means that the variant was in the library but no mating with the target was seen in that replicate; the authors take this as a sign of poor binding, and no number exists. Three control strains display no target. For library AAYL51, 21% of the pairings with them gave a signal, with a median of 4.54 and one signal in twenty below 3.26, so weak values seen in few replicates may be background. The control count says in how many pairings with the empty strains this scFv gave a signal.

Variant GFTFDDYAMH | GISWNAGSIGYAWSVK | VGRGGGYFDY showed 2.63, 3.62, 2.19 (controls 1 of 9).
Variant GFTFDDYAMH | NISWNSTSIGYADSVK | VGRVGGYFDY showed 4.07, ND, 3.64 (controls 4 of 9).
Variant GFTFDDKAMH | GISWNSGSIGYADSVK | VGRGMGSFDY showed 5.08, ND, 4.96 (controls 5 of 9).
Variant GFYFDDYAMH | GISWMSGRIGYADSVK | VGRGGGYFDY showed ND, ND, ND (controls 1 of 9).
Variant GFPFDDYAMH | GIKWNSGSIGYAVSVK | VGRGGGYFDY showed ND, ND, ND (controls 3 of 9).
Variant GFTFDDYAWD | GISWNSGSIGYADSVQ | VGRGGGYFDY showed ND, 4.02, ND (controls 1 of 9).
Variant GFTFDDYAYH | TISWNSGSIGYADSVK | VGRGGGTFDY showed 4.23, ND, 4.35 (controls 0 of 9).
Variant GFTFDDYAMF | GTSWNSGSIGYADSVK | VGRGGDYFDY showed ND, ND, ND (controls 0 of 9).
Variant PFSFDDYAMH | GFSWNSGSIGYADSVK | VGRGGGYFDY showed ND, ND, ND (controls 0 of 9).
Variant GFTFDDYAMH | GISWNSGSIGYADSVK | VGRLKGYFDY showed ND, 5.89, ND (controls 2 of 9).
Variant GFTFMDYAYH | GISWNSGSIGAADSVK | VGRGGGYFDY showed ND, ND, ND (controls 0 of 9).
Variant GFTFDDYAMH | RISWNSGSIGYADSVK | VGRGTGYRDY showed ND, ND, ND (controls 1 of 9).
Variant GFTFDDYAMH | GISWNSPSIGYADSVK | YGRDGGYFDY showed ND, ND, ND (controls 0 of 9).
Variant GFTFDDYAMH | GIIWNSGSIGYADSVK | VCGGGGYFDY showed ND, ND, ND (controls 0 of 9).
Variant GFTFDDYAMH | GLSCNSGSIGVADSVK | VGRGGGYFDY showed 4.70, ND, 4.15 (controls 2 of 9).
Variant GFTFDDYACH | GIVWNEGSIGYADSVK | VGRGGGYFDY showed 3.60, 4.47, 5.45 (controls 7 of 9).
Variant GFTFDDYAMH | GILWQSGSIGYEDSVK | VGRGGGYFDY showed ND, ND, ND (controls 0 of 9).
Variant IFTFDNYAMH | GISWNSGSIGYADDVK | VGRGGGYFDY showed ND, ND, ND (controls 1 of 9).
Variant GFTFDDYAYH | GISWNSGSIGYAKSVK | VGRGGGQFDY showed ND, ND, ND (controls 0 of 9).
Variant GFTFDDYAMH | GISWMSGSIGPADSSK | VGRGGGYFDY showed ND, ND, ND (controls 1 of 9).
Variant GFTCPDYAMI | GISWNSGSIGYADSVK | VGRGGGYFDY showed 4.42, 6.12, ND (controls 7 of 9).
Variant GFTFHDYAMH | GISWNSGSIGYADSEK | VGRGGGYFDH showed 2.25, 2.85, 2.19 (controls 4 of 9).
Variant GNTFDDYAMH | GIAWNSGSIHYADSVK | VGRGGGYFDY showed ND, ND, ND (controls 0 of 9).
Variant HFTFDDYAMH | GASWHSGSIGYADSVK | VGRGGGYFDY showed ND, 3.00, ND (controls 2 of 9).
Variant GFTFDDYAMH | GISWNSGSIGYADSVK | PGRGGGYFDY showed ND, ND, ND (controls 0 of 9).
Variant GFTFDDTTMH | GISWTSGSIGYADSVK | VGRGGGYFDY showed ND, 3.72, ND (controls 1 of 9).
Variant GFHFDDYAMH | GISWNSGSIGLADSVK | VGRGGSYFDY showed 1.11, 1.24, 0.89 (controls 4 of 9).
Variant GFTFLDYAMH | GISENIGSIGYADSVK | VGRGGGYFDY showed ND, ND, ND (controls 0 of 9).
Variant GFTFDPYAMH | GISWNSGSIYYANSVK | VGRGGGYFDY showed ND, ND, ND (controls 1 of 9).
Variant GFTFDDYAMH | GISMNSGSISHADSVK | VGRGGGYFDY showed 4.87, ND, ND (controls 1 of 9).
Variant GFTNDDYAMH | GISWNSGSIGYADSVK | VGRGGTYFDY showed ND, 5.28, ND (controls 2 of 9).
Variant GFYFDDYAMH | GISWNSGSIGYADSVK | KGRGGGYFDY showed ND, ND, ND (controls 1 of 9).
Variant GFTFDDYAMH | GISWNSGSIGYKDSVK | GGRGGGYFPY showed 3.63, 3.87, 3.62 (controls 3 of 9).
Variant GFTFDDYAMH | GPSWNSGSIGYLDSVK | VGRGGGYVDY showed 4.52, ND, ND (controls 0 of 9).
Variant GFTKDDYAMH | GISWNSGSIGYADSVR | VYRGGGYFDY showed 3.63, ND, ND (controls 2 of 9).
Variant GQTFDDFAMH | GISWNSGSIGYADSVK | VGYGGGYFDY showed ND, ND, ND (controls 0 of 9).
Variant GFTFDDYKMH | GISWNSGEIGYADSVK | VGRMGGYFDY showed 1.75, 1.82, 1.64 (controls 3 of 9).
Variant GFTFDDYAMH | GISWNSGSIGQADSVK | VWRGGHYFDY showed ND, ND, 4.96 (controls 1 of 9).
Variant GFTFDDYAMI | GISWNSGSIGYADSVK | VGRGGGYFDA showed 3.53, 3.52, 3.65 (controls 7 of 9).
Variant GFTFMDYAMH | GILWNSGSIYYADSVK | VGRGGGYFDY showed ND, 5.43, ND (controls 1 of 9).
Variant GFTFDDYAMH | GISWNSGSPGYADSPK | VGRGGGEFDY showed 4.25, ND, ND (controls 2 of 9).
Variant GFTFDDYAMH | GISWNSGAIGYADSVF | VGRGGGYFDQ showed ND, ND, ND (controls 0 of 9).
Variant GFTFDQYAMH | GISENSGSIGYASSVK | VGRGGGYFDY showed ND, ND, ND (controls 0 of 9).
Variant DFTFDDYAMH | GISWNSGSIGYADSVK | YLRGGGYFDY showed ND, 4.47, ND (controls 1 of 9).
Variant NFTFDDYAMH | GISWNNGSIGYADSVK | VGCGGGYFDY showed 5.38, ND, ND (controls 4 of 9).
Variant GFTFDDYAMH | GISWNSDSIWYDDSVK | VGRGGGYFDY showed ND, ND, ND (controls 3 of 9).
Variant GFTFDDTAMH | QISWNSGKIGYADSVK | VGRGGGYFDY showed ND, ND, ND (controls 0 of 9).
Variant GFTFDDYAMH | GISWNSGSIGVADSVK | WGRGGGYFFY showed 4.13, ND, ND (controls 2 of 9).
Variant GFTFDAYAMH | GISWNSGSIGYADSVK | VGRGGGYDDY showed 4.79, ND, ND (controls 6 of 9).

Repeated from above, the 7 best binders with a signal in all replicates:

The variant GFHFDDYAMH | GISWNSGSIGLADSVK | VGRGGSYFDY showed 1.11, 1.24, 0.89 (controls 4 of 9).
The variant GFTFDDYKMH | GISWNSGEIGYADSVK | VGRMGGYFDY showed 1.75, 1.82, 1.64 (controls 3 of 9).
The variant GFTFHDYAMH | GISWNSGSIGYADSEK | VGRGGGYFDH showed 2.25, 2.85, 2.19 (controls 4 of 9).
The variant GFTFDDYAMH | GISWNAGSIGYAWSVK | VGRGGGYFDY showed 2.63, 3.62, 2.19 (controls 1 of 9).
The variant GFTFDDYAMI | GISWNSGSIGYADSVK | VGRGGGYFDA showed 3.53, 3.52, 3.65 (controls 7 of 9).
The variant GFTFDDYAMH | GISWNSGSIGYKDSVK | GGRGGGYFPY showed 3.63, 3.87, 3.62 (controls 3 of 9).
The variant GFTFDDYACH | GIVWNEGSIGYADSVK | VGRGGGYFDY showed 3.60, 4.47, 5.45 (controls 7 of 9).